The text below walks through data of patent US9193673B2, “Derivatives of mesalazine, process of their preparation and their use in the treatment of intestinal inflammatory diseases” (SOFAR SPA, priority 2010, dated 2015).

The series relates to Caco2 cellular line. Put plainly: Permeability on the Caco2 cellular line. Type of series: in vitro ADME. A general note: Caco-2 cells form a polarised layer with tight junctions and transporters.

Cimetidine [reference compound]: the BA/AB ratio is listed as 4.2. Further, the “Papp A→B (nm/sec) Mean ± SD” value (Apical (pH 6.5) → Basolateral (pH 7.4)) came out at 5.8 ± 0.4 nm/s. Under “A→B”, the “A→B Mean mass balance %” value is 63%. For the same substance, where the note is “B→A”, the “B→A Mean mass balance %” value was 111% and the “Papp B→A (nm/sec) Mean ± SD” value came to 24.5 ± 3.4 nm/s.
